By UniProt entry, the sequences of proteins in these tests, tags left out.
UniProt P03372, whole entry: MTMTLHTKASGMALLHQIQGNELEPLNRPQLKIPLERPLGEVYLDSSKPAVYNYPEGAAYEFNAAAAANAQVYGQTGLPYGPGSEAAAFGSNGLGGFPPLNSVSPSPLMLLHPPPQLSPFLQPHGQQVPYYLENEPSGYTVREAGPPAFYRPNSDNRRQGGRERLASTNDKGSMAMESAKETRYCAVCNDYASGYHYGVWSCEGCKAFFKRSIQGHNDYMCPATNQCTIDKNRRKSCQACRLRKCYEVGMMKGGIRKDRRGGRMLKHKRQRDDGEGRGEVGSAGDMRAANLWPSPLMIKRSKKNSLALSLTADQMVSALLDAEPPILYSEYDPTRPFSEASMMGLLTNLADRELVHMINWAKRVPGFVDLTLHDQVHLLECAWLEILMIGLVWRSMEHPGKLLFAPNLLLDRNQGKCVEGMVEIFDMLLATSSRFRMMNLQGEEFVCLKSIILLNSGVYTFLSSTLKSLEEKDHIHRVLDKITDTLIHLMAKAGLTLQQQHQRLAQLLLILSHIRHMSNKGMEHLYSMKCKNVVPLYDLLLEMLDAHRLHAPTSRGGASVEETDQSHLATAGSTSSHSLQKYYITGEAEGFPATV

In patent US20030224390A1, “Method of identifying conformation-sensitive binding peptides and uses thereof” (Karo Bio AB, priority 2000, published 2003):

Target: ERα (Homo sapiens, UniProt P03372)
Test: Binding of the peptide probes to ERα in the presence of modulators (Table 15a)

CC/C(=C(\c1ccc(O)cc1)c1ccc(/C=C/C(=O)O)cc1)c1ccccc1 [GW7604]
0%: Equiv. (equivalency), peptide probe α/βI on ERα (probe α/βI, positive: % of maximum stimulation by the modulator used to isolate the probe, negative: % of reduction by ICI 182,780) | Equiv. (equivalency), peptide probe α/βIII on ERα (probe α/βIII, reference 4-OH tamoxifen, negative: % of reduction by ICI 182,780) | Equiv. (equivalency), peptide probe α/βIV on ERα (probe α/βIV, reference 4-OH tamoxifen, negative: % of reduction by ICI 182,780) | Equiv. (equivalency), peptide probe α/βV on ERα (probe α/βV, reference 4-OH tamoxifen)
